In patent US9303092B2, “Methamphetamine-like hapten compounds, linkers, carriers and compositions and uses thereof” (The Board of Trustees of the University of Arkansas, priority 2000, dated 2016):

Experiments:
mAb6H4 = assay: RIA binding specificity, relative potency to METH; design: species or system mouse; details: RIA IC50 value for METH/RIA IC50 value for test ligand
mAb6H8 = assay: RIA binding specificity, relative potency to METH; design: species or system mouse; details: RIA IC50 value for METH/RIA IC50 value for test ligand
mAb4G9 = assay: RIA binding specificity, relative potency to METH; design: species or system mouse; details: RIA IC50 value for METH/RIA IC50 value for test ligand
discriminative stimulus = details: (+)-methamphetamine trained rats; cited from earlier work
[1] = (+)-Methamphetamine and (+)-amphetamine pharmacokinetic studies in serum and brain with and without mAb6H4; details: Brain, 1-mol equivalent dose of mAb at 30 min

In the case of (+)-methamphetamine [(+)METH], the “Relative Potency to METH, mAb6H4” value (mAb6H4) was 1.00, the “Relative Potency to METH, mAb6H8” value (mAb6H8) was 1.00 and the “Relative Potency to METH, mAb4G9” value (mAb4G9) was 1.00. For the same substance, the “potency relative to cocaine” value (discriminative stimulus) was 10 times and the “AUC38 min-[…] Treated” value [1] was 246 ng·h/g.
